In paper PMC3199867, “Targeting surface nucleolin with multivalent HB-19 and related Nucant pseudopeptides results in distinct inhibitory mechanisms depending on the malignant tumor cell type” (BMC Cancer, 2011):

Experiments:
Format in all cases: cell-based, human
MDA-MB 435 cells = test: Wound healing scratch assay (motility); settings: MDA-MB 435 confluent monolayers, 10 μM, 48 hours
Experimental: The wound healing assay of control and N6L treated MDA-MB 435 cells was performed as described previously. Briefly, confluent monolayers of cells (plated onto 60 mm^2 dishes) were scratched using 200 µl pipette tip, and cells were cultured in the absence (Control) or presence of N6L (10 µM) for 48 hours. Wound closure was monitored over time and photographed using Olympus 1-81 microscope at 40X magnification.

SW480 = test: Cell growth / proliferation (cell number)
Experimental: Human breast (MDA-MB-231, MDA-MB-435 [37]), prostate (LNCaP, from American Type Culture Collection, ATCC, Rockville, MD), and cervical (HeLa) epithelial cancer cells were grown in DMEM-glutamax medium (Gibco Invitrogen, Cergy-Pontoise, France) containing GlutaMAX™, 4.5 g/l glucose and supplemented with 10% heat-inactivated (56°C for 30 min) fetal bovine serum (FBS; Hyclone, Thermo Fisher Scientific, Inc). Human SW480 cells are derived from a grade 3-4 colon carcinoma, while the highly metastatic counterpart SW620 is established from the lymph node of a person. Both SW480 and SW620 cells (obtained from Francis Raul, IRCAD) are highly tumorigenic in nude mice. They were cultured in D-MEM, 10% FCS. The murine melanoma TIII cell line was obtained from Armelle Prévost-Blondel. Murine T29 lymphoma cells, obtained from Philippe Kastner (CNRS, Strasbourg), have been established from Ik^L/L tumors from mice carrying a hypomorphic mutation (Ik^L/L) in the Ikaros gene encoding a transcription factor that regulates lymphocyte differentiation, and acts also as a tumor suppressor in T lymphocytes. The T29 cells were cultured in RPMI medium containing 25 mM Hepes pH 7.6, 1 mM sodium pyruvate, and 10% FCS. Human leukemia cell lines, Jurkat (acute T cell leukemia), HuT 78 (cutaneous T lymphocyte), RAJI (Burkitt lymphoma), and HL60 (promyelocytic leukemia) were cultured in RPMI-1640 medium (Gibco) containing GlutaMAX™, and supplemented with 10% heat-inactivated FBS as described before. The wild-type Chinese hamster ovary cell line (CHO K1) was purchased from American Type Culture Collection (ATCC; Rockville, MD). The CHO LRP1-null cell line (CHO-13-5-1) was kindly provided by D. Strickland [47]. They were cultured in Ham's F12K medium. All cells were cultured with 10% (v/v) heat inactivated (56°C, 30 min) fetal bovine serum (FBS) (Roche Molecular Biochemicals, Indianapolis, IN) and 50 international units/mL penicillin-streptomycin (Invitrogen). Cell death was monitored conveniently by uptake of the trypan blue dye due to plasma membrane permeability of dying and/or dead cells.

surface nucleolin = test: Down regulation of surface nucleolin in HeLa CD4+ cells, immunoblotting; settings: 7 hours
Experimental: Nucleolin was analyzed by immunoblotting using either the monoclonal antibody (mAb) D3 against nucleolin (kindly provided by Dr. J. S. Deng), or rabbit polyclonal antibodies directed against a synthetic peptide corresponding to the first 26 ([…]) and the last 16 (GGGGDHKPQGKKTKFE) amino acid residues of human nucleolin as described before. […] The reacting bands were visualized with an enhanced chemiluminescence (ECL) reagent and by exposure to autoradiography film (Amersham Biosciences). In some experiments, the presence of actin was monitored as a control with mAb anti-actin A-4700 (Sigma). […]
Figure 2 HB-19 and related Nucant pseudopeptides antagonize surface nucleolin and trigger its down regulation. […] At 48 h post-infection, the β-galactosidase activity was measured in cell extracts directly to monitor HIV entry (Methods). The abscissa gives % Activity of surface nucleolin calculated from the optical density measurements at 570 nm. […] Cytoplasmic (containing cytoplasmic as well as surface nucleolin) and nuclear extracts were analyzed by immunoblotting using mAb D3 as described (Methods)(panels Surface/cytoplasmic NCL, Nuclear NCL). […]

## CC(=O)N[C@@H](CCCCNC(=O)[C@H](CCCNC(=N)N)NC(=O)[C@@H]1CCCN1C[C@@H](N)CCCCN)C(=O)NC(C)(C)C(=O)NCC(=O)N[C@@H](CCCCNC(=O)[C@H](CCCNC(=N)N)NC(=O)[C@@H]1CCCN1C[C@@H](N)CCCCN)C(=O)NC(C)(C)C(=O)NCC(=O)N[C@@H](CCCCNC(=O)[C@H](CCCNC(=N)N)NC(=O)[C@@H]1CCCN1C[C@@H](N)CCCCN)C(=O)NC(C)(C)C(=O)NCC(=O)N[C@@H](CCCCNC(=O)[C@H](CCCNC(=N)N)NC(=O)[C@@H]1CCCN1C[C@@H](N)CCCCN)C(=O)NC(C)(C)C(=O)NCC(=O)N[C@@H](CCCCNC(=O)[C@H](CCCNC(=N)N)NC(=O)[C@@H]1CCCN1C[C@@H](N)CCCCN)C(=O)NC(C)(C)C(=O)NCC(=O)N[C@@H](CCCCNC(=O)[C@H](CCCNC(=N)N)NC(=O)[C@@H]1CCCN1C[C@@H](N)CCCCN)C(=O)NC(C)(C)C(=O)NCC(N)=O [Nucant N6L]
MDA-MB 435 cells
  invasion of the scratched area (motility): almost no cells are present at the middle of scratched area
SW480; SW480, 10 μM added once 5 hours after seeding (20,000 cells/ml, 2 ml), counted seven days after seeding, control 1,500,000
  Number of cells: 800,000
SW480; SW480, 10 μM added once 5 hours after seeding, counted seven days after seeding
  % inhibition: 47%
SW480; SW480, N6L 10 μM, viable cell number vs untreated control, mean of at least 2 independent experiments
  % Growth inhibition After 3 days: 35%
Surface nucleolin; 1 μM, band intensity by NIH image
  reduction of surface nucleolin level: more than 80%
Surface nucleolin; 2 μM
  surface nucleolin level: no longer detectable
